# Assay results published in patent US12582652B2, “3-(ethoxydifluoromethyl)-6-(5-fluoro-6-(2,2,2-trifluoroethoxy)pyridin-3-yl)-[1,2,4]triazolo[4,3-a]pyrazine as an ion channel modulator” (Praxis Precision Medicines, Inc., priority 2022, dated 2026).
# By UniProt entry, the sequences of proteins in these tests, tags left out.
# UniProt Q9UQD0, whole entry: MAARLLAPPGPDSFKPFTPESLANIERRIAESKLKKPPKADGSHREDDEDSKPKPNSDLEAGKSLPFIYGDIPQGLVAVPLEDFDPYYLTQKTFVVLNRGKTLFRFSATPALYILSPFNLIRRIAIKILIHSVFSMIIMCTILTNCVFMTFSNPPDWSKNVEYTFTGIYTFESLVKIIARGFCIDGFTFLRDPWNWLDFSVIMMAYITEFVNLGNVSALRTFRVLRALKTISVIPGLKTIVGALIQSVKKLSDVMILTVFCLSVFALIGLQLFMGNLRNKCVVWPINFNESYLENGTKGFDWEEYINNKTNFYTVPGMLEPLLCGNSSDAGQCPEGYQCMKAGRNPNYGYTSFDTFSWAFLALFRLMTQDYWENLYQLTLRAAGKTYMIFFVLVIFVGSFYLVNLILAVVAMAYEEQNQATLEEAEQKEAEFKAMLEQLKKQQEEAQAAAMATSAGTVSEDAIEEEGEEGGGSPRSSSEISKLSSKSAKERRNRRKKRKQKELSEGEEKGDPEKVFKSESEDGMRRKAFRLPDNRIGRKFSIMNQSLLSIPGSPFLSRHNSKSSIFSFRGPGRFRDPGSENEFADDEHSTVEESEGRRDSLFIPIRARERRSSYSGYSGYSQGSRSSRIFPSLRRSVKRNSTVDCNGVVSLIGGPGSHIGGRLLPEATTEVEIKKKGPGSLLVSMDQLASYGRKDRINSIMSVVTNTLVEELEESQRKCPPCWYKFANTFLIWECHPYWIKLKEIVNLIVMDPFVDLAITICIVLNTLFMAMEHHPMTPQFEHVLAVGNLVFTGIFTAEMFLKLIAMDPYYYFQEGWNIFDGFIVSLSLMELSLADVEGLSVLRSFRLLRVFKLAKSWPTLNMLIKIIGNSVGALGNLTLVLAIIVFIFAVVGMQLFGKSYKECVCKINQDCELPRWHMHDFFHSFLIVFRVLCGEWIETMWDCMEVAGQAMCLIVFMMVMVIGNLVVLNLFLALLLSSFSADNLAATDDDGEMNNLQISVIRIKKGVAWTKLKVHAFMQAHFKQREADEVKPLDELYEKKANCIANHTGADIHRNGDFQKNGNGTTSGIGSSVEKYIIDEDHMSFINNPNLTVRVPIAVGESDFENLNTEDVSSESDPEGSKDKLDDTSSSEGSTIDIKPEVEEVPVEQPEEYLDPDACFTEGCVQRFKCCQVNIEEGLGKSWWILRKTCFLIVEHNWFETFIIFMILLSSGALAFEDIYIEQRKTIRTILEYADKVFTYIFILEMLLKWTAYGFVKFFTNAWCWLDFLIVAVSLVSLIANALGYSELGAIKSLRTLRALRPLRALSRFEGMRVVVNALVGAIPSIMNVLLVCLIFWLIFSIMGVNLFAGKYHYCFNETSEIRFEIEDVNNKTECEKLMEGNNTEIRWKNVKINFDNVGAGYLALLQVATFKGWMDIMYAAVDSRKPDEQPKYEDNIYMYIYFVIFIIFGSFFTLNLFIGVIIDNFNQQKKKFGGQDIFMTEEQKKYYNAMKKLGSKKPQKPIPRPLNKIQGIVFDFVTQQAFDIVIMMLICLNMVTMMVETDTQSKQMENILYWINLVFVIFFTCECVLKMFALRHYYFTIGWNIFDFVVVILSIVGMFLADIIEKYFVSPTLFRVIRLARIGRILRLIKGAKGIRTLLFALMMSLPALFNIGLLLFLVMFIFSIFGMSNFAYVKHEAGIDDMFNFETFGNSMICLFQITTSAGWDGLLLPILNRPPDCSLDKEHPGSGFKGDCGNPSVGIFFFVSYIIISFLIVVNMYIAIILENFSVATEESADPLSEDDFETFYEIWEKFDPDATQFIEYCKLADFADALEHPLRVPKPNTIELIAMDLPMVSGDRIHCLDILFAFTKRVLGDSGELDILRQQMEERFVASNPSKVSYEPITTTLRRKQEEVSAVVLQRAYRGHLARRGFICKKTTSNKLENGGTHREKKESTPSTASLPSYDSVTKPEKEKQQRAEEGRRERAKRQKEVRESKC
# Legend:
# male CD-1 mice = experiment: Spontaneous locomotor activity (sLMA) test; details: brain TC50 (sLMA) / brain EC50 (MES), free concentrations
# human NaV1.6 [1] = target: T1, human NaV1.6 (Homo sapiens, UniProt Q9UQD0); experiment: ATX-II activated late (persistent) INa block, PatchXpress patch clamp; type: cell-based; details: hNaV1.6, all assay conditions
# T1 construct: stably expressing either human NaV1.6 (NP_055006); expressed in transfected cells
# Method: (§1) HEK-293 cell lines stably expressing either human NaV1.6 (NP_055006), mouse NaV1.6 (NP_035453.2), or rat NaV1.6 (NP_062139) were used. All cells were seeded at 2×10^6 cells per Nunc T75 flask for 2 days in culture. At time of harvest for assays, the cell counts were approximately 6×10^6 cells. Cells were washed (1×) in DPBS (Hyclone, Cat #SH30028.03) for approximately 30 seconds. 1 mL of 1×0.05% Trypsin-EDTA (GIBCO Cat #25300-054) was added and swirled around to cover the bottom of the flask and was allowed to sit on the cells for approximately 4 minutes (±90% of the cells were lifted by light tapping of the flask). […]
# (§2) The same intracellular recording solution was used for the persistent and peak INa assays, which contained: 135 mM CsF, 10 mM CsCl, 5 mM NaCl, 10 mM HEPES, 5 mM EGTA at a pH of 7.4 (adjusted with CsOH) and a measured osmolarity of 298 mOsm (adjusted with mannitol). For the persistent INa assay, the external recording solution contained: 135 mM NaCl, 5.4 mM KCl, 5 mM glucose, 2 mM CaCl2), 1 mM MgCl2, 10 mM HEPES, and 200 nM ATX-II (sea anemone toxin, Alomone Labs; Jerusalem, Israel) at a pH of 7.4 (adjusted with NaOH) and a measured osmolarity of 300 mOsm (adjusted with mannitol). […]
# Late (persistent) current Block: The inhibition of ATX-II activated late current was measured using a 200 ms voltage step to 0 mV. […]
# human NaV1.6 [2] = target: T1, human NaV1.6; experiment: Peak INa tonic block (TB), PatchXpress patch clamp; type: cell-based; details: hNaV1.6
# Method: as §1, §2
# CA1 pyramidal neurons = experiment: Intrinsic excitability (evoked action potentials) of CA1 pyramidal neurons, brain slice whole-cell current clamp; type: cell-based, mouse
# Method: Three hundred micrometer coronal hippocampal slices were cut on a vibratome (VT1200; Leica) for whole-cell patch-clamp experiments. Slices were incubated for a minimum of 1 hour in the incubation solution at room temperature before patching.
# Brain slices were transferred to a submerged recording chamber on an upright microscope (Slicescope Pro 1000; Scientifica) and were perfused (2 ml/min) with the extracellular artificial cerebral spinal fluid (aCSF) recording solution at 32° C. […]
# Studies were performed using whole-cell current clamp recording mode. […] Once baseline action potential firing was determined in the presence of the extracellular aCSF recording solution (baseline), Compound 1 (300 nM or 3 μM) was washed onto the slice for 5 minutes before repeating the action potential generating protocol (FIG. 1B).
# Data were analyzed using Axograph X software. Individual action potentials were identified and counted using a +50 mV amplitude threshold relative to pre-event baseline. […] Action potential amplitudes were determined relative to the pre-event baseline at the +200 pA current injection step for each cell. […] For statistical comparisons between groups, the total number of action potentials fired per cell was calculated. […]
# human NaV1.6 [3] = target: T1, human NaV1.6; experiment: Peak INa voltage-dependent block (VDB), PatchXpress patch clamp; type: cell-based; details: hNaV1.6
# Method: as §1, §2
# human NaV1.6 [4] = target: T1, human NaV1.6; experiment: Peak INa use-dependent block (UDB-10 Hz), PatchXpress patch clamp; type: cell-based; details: hNaV1.6
SMILES,PI (Brain) (male CD-1 mice),preference for persistent INa relative to peak INa (human NaV1.6 [1]),Ratio to Pers. INa (Peak INa TB / persistent INa) (human NaV1.6 [2]),"neuronal excitability, number of evoked APs (CA1 pyramidal neurons; 45 μmol/L CBZ (peak INa VDB IC50))","AP amplitude (CA1 pyramidal neurons; +200 pA current injection, 0.3 μmol/L Compound 1, 45 μmol/L CBZ)",Ratio to Pers. INa (Peak INa VDB / persistent INa) (human NaV1.6 [3]),Ratio to Peak INa (TB) (UDB-10 Hz) (human NaV1.6 [4]),Ratio to Pers. INa (Peak INa UDB-10 Hz / persistent INa) (human NaV1.6 [4])
"Nc1nnc(-c2cccc(Cl)c2Cl)c(N)n1 [Lamotrigine, reference compound]",4.7,,,,,,,
NC(=O)N1c2ccccc2C=Cc2ccccc21 [Carbamazepine],,no preference for persistent INa,30,more robust reduction,more pronounced reduction,0.6,1.6,18
